{"source": "patent US11419869B2", "about": "“Dosage forms and regimens for amino acid compounds” (Pliant Therapeutics, Inc., priority 2019, dated 2022)", "system": "Type I Collagen gene Col1a1 expression", "assay": "Precision cut lung slices, mice under acute bleomycin exposure (Example B8)", "type": "cell-based", "experimental": "Mice (C57BL/6) were administered 3 U/kg of bleomycin (Teva Pharmaceuticals; North Wales, Pa.) on day 0 via oropharyngeal aspiration while under anesthesia. On day 14, precision cut lung slices were obtained. Following euthanization, 2% low gelling temp agarose was injected into the mouse lungs via the trachea. […] The lobes were then subjected to precision slicing to obtain samples for culture using a microtome (Compresstome VF-300-0Z, Precisionary; Greenville, N.C.). Individual slices were distributed in a multiwell culture plate and cultured for 3 days under control (DMSO) and test compound conditions.", "data": [{"molecule": "Cc1cc(C)n(-c2cccc([C@H](CC(=O)O)CN3CC[C@H](CCc4ccc5c(n4)NCCC5)C3)c2)n1", "note": "[first pan-av small molecule inhibitor, (3S)-3-[3-(3,5-dimethyl-1H-pyrazol-1-yl)phenyl]-4-{(3S)-3-[2-(5,6,7,8-tetrahydro-1,8-naphthyridin-2-yl)ethyl]-1-pyrrolidinyl}butanoic acid]", "values": [{"measurement": "Type I Collagen gene Col1a1 expression", "value": "reduced Type I Collagen gene Col1a1 expression"}]}]}
